# Columns and labels:
# By UniProt entry, the sequences of proteins in these tests, tags left out.
# UniProt Q9UBE8, whole entry: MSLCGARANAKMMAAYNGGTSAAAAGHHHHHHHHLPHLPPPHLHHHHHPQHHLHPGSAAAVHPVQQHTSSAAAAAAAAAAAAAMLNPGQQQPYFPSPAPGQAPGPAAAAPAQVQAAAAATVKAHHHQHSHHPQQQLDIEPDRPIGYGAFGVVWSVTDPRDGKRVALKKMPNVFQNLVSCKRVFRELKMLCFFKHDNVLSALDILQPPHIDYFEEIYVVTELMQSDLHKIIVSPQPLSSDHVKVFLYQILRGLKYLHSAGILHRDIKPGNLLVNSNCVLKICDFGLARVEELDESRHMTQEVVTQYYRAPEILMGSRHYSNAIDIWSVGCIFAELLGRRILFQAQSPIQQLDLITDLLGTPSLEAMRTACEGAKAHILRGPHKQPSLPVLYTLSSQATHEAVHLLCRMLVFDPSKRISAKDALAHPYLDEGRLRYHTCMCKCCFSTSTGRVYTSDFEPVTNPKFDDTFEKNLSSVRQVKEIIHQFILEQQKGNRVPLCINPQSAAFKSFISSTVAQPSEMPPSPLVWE
# UniProt Q15759, whole entry: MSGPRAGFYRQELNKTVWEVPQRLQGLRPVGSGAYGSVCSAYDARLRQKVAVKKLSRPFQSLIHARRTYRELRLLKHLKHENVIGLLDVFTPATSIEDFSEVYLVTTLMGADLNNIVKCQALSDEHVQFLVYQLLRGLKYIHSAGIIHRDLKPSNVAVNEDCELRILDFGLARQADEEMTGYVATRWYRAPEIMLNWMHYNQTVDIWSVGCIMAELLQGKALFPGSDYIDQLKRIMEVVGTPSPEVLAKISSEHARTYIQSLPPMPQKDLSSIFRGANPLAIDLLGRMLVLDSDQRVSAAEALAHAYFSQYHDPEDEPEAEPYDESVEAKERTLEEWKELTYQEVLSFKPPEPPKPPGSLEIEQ
# UniProt P27448, whole entry: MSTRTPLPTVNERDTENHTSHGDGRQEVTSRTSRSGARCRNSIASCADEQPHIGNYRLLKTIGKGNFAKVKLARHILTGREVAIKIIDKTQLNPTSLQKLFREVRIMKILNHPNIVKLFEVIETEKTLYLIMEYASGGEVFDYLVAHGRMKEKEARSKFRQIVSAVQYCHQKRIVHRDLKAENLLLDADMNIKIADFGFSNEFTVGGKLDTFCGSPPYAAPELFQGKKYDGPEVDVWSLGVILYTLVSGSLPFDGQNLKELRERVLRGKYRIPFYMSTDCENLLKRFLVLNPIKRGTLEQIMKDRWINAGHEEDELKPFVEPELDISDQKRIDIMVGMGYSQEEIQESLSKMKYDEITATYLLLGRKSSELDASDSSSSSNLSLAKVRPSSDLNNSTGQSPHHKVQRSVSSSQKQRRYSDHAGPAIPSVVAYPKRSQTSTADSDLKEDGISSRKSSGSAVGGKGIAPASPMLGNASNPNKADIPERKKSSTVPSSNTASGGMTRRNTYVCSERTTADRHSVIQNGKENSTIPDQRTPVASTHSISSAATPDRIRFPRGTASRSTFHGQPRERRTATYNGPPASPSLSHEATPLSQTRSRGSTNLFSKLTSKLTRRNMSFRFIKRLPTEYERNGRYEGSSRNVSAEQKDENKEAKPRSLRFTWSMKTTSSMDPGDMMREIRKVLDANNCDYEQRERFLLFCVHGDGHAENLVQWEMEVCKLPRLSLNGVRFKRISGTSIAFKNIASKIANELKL
# UniProt Q9BRS2, whole entry: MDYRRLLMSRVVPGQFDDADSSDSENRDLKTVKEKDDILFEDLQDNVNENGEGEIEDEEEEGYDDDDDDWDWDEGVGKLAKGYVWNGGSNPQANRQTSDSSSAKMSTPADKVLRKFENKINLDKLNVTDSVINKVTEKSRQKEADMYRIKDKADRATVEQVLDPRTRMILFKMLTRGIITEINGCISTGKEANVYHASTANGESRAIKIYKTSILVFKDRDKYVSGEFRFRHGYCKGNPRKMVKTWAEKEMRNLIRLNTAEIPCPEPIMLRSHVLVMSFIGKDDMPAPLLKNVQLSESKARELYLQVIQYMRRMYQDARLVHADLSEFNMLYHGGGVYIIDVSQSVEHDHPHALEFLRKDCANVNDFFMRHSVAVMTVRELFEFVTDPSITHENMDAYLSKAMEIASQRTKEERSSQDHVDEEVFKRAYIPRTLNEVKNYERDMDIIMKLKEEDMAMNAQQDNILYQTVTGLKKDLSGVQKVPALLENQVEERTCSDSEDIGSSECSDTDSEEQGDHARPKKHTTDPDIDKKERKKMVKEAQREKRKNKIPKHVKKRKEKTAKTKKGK
# UniProt Q13057, whole entry: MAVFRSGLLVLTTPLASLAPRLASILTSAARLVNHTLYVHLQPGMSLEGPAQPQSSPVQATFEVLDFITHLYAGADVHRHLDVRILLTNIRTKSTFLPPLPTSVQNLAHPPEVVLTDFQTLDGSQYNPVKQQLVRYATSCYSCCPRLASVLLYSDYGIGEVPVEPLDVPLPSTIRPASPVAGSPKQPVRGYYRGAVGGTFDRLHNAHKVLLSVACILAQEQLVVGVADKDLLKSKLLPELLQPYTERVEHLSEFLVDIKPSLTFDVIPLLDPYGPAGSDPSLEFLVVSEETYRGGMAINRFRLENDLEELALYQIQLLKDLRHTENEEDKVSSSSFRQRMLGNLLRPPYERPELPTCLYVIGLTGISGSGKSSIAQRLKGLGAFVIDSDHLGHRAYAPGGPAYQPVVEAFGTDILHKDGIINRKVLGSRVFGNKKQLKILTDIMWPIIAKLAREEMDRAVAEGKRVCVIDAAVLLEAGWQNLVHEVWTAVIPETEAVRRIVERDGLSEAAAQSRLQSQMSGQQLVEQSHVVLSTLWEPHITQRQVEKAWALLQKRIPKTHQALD
# UniProt P23919, whole entry: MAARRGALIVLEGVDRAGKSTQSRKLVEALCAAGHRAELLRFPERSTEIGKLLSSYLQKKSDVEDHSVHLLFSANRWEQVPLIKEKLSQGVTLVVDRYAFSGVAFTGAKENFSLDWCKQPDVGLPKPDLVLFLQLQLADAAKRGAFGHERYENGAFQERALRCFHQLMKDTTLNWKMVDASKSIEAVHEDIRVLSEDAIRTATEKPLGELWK
# UniProt Q13554, whole entry: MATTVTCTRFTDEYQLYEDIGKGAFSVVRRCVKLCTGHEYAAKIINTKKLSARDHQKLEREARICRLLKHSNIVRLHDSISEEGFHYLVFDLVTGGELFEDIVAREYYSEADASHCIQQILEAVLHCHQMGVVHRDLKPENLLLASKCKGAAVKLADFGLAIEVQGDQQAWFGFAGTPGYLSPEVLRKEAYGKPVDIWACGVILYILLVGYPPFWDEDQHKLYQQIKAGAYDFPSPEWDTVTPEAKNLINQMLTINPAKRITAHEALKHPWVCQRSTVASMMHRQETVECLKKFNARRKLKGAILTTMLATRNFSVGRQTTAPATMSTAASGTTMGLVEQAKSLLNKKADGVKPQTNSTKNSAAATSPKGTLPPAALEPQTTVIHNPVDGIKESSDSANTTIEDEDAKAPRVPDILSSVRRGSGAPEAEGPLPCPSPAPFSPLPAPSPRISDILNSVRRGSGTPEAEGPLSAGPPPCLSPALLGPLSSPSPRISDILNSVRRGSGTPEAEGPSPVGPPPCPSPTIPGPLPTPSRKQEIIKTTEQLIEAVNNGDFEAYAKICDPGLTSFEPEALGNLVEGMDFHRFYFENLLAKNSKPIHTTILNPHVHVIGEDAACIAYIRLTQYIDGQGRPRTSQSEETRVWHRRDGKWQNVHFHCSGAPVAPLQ
# UniProt Q00536, whole entry: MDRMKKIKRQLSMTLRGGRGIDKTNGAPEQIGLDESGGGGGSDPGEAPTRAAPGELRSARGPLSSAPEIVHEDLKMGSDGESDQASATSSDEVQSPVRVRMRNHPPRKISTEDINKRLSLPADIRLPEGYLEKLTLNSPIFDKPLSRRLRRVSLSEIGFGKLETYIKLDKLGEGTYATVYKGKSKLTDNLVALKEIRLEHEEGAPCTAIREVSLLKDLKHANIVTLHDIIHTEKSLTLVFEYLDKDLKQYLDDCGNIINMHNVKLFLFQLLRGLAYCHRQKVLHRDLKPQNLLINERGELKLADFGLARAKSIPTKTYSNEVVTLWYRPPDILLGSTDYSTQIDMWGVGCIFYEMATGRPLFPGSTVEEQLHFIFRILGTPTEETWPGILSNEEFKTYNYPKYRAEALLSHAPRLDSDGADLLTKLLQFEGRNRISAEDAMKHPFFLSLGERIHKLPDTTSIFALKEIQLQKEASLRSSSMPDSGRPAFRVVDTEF
# UniProt O14965, whole entry: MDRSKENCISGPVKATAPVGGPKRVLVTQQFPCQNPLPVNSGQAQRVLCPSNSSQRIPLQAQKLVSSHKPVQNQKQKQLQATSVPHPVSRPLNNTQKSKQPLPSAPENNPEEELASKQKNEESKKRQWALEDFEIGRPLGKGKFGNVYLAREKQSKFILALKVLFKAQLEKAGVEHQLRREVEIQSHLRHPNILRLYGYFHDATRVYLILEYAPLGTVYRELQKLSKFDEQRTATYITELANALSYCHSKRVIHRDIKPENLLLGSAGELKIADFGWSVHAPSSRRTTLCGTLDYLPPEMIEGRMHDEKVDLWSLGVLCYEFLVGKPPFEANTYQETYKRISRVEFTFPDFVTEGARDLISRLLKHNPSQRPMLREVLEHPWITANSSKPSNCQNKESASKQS
# UniProt Q07912, whole entry: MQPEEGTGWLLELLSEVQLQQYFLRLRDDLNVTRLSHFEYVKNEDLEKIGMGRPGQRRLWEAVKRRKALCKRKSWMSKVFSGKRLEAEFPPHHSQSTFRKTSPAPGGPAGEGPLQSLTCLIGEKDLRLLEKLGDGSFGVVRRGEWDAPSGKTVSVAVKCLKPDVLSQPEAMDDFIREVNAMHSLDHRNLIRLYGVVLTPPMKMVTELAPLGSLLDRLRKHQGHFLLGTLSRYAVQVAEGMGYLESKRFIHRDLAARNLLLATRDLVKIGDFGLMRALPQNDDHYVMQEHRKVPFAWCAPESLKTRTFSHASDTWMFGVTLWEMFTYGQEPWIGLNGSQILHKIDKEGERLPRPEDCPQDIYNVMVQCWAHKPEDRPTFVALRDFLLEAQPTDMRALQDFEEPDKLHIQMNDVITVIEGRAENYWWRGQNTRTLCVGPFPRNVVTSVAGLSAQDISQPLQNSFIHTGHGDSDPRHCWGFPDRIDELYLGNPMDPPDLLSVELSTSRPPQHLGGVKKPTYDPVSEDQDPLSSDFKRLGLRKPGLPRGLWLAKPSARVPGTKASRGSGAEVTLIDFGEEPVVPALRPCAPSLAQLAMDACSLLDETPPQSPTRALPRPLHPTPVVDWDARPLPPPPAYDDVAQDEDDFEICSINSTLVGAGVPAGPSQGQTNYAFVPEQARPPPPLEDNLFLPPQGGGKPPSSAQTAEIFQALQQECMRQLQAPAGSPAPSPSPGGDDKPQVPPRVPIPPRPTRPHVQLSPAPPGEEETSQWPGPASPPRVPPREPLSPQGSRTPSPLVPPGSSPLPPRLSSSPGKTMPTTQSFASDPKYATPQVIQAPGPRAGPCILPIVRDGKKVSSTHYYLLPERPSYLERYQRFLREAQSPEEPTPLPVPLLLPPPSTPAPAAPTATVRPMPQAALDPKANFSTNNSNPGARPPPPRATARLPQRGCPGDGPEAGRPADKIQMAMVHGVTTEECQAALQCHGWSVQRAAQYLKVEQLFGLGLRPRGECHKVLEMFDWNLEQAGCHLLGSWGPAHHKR
# UniProt Q09013, whole entry: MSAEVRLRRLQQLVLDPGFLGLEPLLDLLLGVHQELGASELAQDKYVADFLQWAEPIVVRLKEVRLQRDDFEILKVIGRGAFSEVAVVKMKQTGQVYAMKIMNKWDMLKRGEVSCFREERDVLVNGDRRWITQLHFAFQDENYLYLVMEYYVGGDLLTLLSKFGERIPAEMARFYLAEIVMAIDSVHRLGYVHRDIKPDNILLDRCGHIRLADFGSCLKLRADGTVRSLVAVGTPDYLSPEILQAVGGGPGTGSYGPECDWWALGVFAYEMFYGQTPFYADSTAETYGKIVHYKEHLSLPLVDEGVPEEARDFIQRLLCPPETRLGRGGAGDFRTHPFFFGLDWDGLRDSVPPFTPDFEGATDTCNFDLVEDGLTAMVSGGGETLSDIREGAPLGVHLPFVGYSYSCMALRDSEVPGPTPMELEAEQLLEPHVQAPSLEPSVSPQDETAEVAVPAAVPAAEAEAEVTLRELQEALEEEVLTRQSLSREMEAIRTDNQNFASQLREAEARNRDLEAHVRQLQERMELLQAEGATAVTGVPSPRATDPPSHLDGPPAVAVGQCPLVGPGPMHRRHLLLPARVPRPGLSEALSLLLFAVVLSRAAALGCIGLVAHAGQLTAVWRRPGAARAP
# Assay in all cases: KAT chemical proteomics
# [1] = target: STK3 (Homo sapiens, UniProt Q13188)
# [2] = target: NLK (Homo sapiens, UniProt Q9UBE8)
# [3] = target: MAPK11 (Homo sapiens, UniProt Q15759)
# [4] = target: LIMK1 (Homo sapiens, UniProt P53667)
# [5] = target: FGFR4 (Homo sapiens, UniProt P22455)
# [6] = target: MAP3K6 (Homo sapiens, UniProt O95382)
# [7] = target: SRC (Homo sapiens, UniProt P12931)
# [8] = target: PRKCD (Homo sapiens, UniProt Q05655)
# [9] = target: CDK8 (Homo sapiens, UniProt P49336)
# [10] = target: KIT (Homo sapiens, UniProt P10721)
# [11] = target: MARK3 (Homo sapiens, UniProt P27448)
# [12] = target: ULK3 (Homo sapiens, UniProt Q6PHR2)
# [13] = target: TYRO3 (Homo sapiens, UniProt Q06418)
# [14] = target: STK11 (Homo sapiens, UniProt Q15831)
# [15] = target: MAPK7 (Homo sapiens, UniProt Q13164)
# [16] = target: PI4K2A (Homo sapiens, UniProt Q9BTU6)
# [17] = target: RIOK1 (Homo sapiens, UniProt Q9BRS2)
# [18] = target: MELK (Homo sapiens, UniProt Q14680)
# [19] = target: CAMK2G (Homo sapiens, UniProt Q13555)
# [20] = target: FAM20B (Homo sapiens, UniProt O75063)
# [21] = target: COASY (Homo sapiens, UniProt Q13057)
# [22] = target: DTYMK (Homo sapiens, UniProt P23919)
# [23] = target: NEK3 (Homo sapiens, UniProt P51956)
# [24] = target: STRADA (Homo sapiens, UniProt Q7RTN6)
# [25] = target: IKBKE (Homo sapiens, UniProt Q14164)
# [26] = target: BMPR1B (Homo sapiens, UniProt O00238)
# [27] = target: FGFR1 (Homo sapiens, UniProt P11362)
# [28] = system: PRKAB2
# [29] = target: MAPK6 (Homo sapiens, UniProt Q16659)
# [30] = target: DYRK2 (Homo sapiens, UniProt Q92630)
# [31] = target: CAMK2B (Homo sapiens, UniProt Q13554)
# [32] = target: RIPK2 (Homo sapiens, UniProt O43353)
# [33] = target: CAMK1D (Homo sapiens, UniProt Q8IU85)
# [34] = target: CDK16 (Homo sapiens, UniProt Q00536)
# [35] = target: AurKA (Homo sapiens, UniProt O14965)
# [36] = target: TNK2 (Homo sapiens, UniProt Q07912)
# [37] = target: HIPK3 (Homo sapiens, UniProt Q9H422)
# [38] = target: DMPK (Homo sapiens, UniProt Q09013)
# [39] = target: GSK3A (Homo sapiens, UniProt P49840)
# [40] = target: MAP3K4 (Homo sapiens, UniProt Q9Y6R4)
smiles,measurement,setting,value
"Cc1nc(C(F)(F)F)c2c(C(N)=O)c(N)n(-c3c(C)ccc(O)c3C)c2n1 (single isomer, unassigned)",RB50,[1],>50 µM
same,RB50,[2],>50 µM
same,RB50,[3],>50 µM
same,RB50,[4],>50 µM
same,RB50,[5],>50 µM
same,RB50,[6],>50 µM
same,RB50,[7],178 nM
same,RB50,[8],>50 µM
same,RB50,[9],>50 µM
same,RB50,[10],>50 µM
same,RB50,[11],>50 µM
same,RB50,[12],>50 µM
same,RB50,[13],>50 µM
same,RB50,[14],>50 µM
same,RB50,[15],>50 µM
same,RB50,[16],>50 µM
same,RB50,[17],>50 µM
same,RB50,[18],>50 µM
same,RB50,[19],>50 µM
same,RB50,[20],>50 µM
same,RB50,[21],>50 µM
same,RB50,[22],>50 µM
same,RB50,[23],>50 µM
same,RB50,[24],>50 µM
same,RB50,[25],>50 µM
same,RB50,[26],20.7 nM
same,RB50,[27],>50 µM
same,RB50,[28],>50 µM
same,RB50,[29],>50 µM
same,RB50,[30],>50 µM
same,RB50,[31],>50 µM
same,RB50,[32],>50 µM
same,RB50,[33],>50 µM
same,RB50,[34],>50 µM
same,RB50,[35],>50 µM
same,RB50,[36],241 nM
same,RB50,[37],>50 µM
same,RB50,[38],>50 µM
same,RB50,[39],>50 µM
same,RB50,[40],>50 µM
